Compounds with a hit are over-represented: about 0.66% of the library has one in this group of screens.
Rango complex inh – Rango-importin beta binding inhibition; 340,000 tested, 0.031% active; AID 540263; Potency, µM (series often up to 92.2 µM), for inactives: top-dose inhibition of complex formation; Rango CFP/YFP FRET sensor + importin beta, 45 min;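 also: 0% = DMSO wells and 100% = buffer wells lacking importin beta; nearly all actives have a fitted effect of over 15% in size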
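Inhibition scored from the CFP 486 nm/YFP 530 nm FRET ratio 45 min after adding 0.125 microM importin beta to 50 nM Rango biosensor preincubated 5 min with compound (room temperature, PBS with DTT, Tween-20, BSA). No-importin wells as positive control.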
gsp antagonist – antagonists of gsp mutant (McCune-Albright syndrome); 340,000 tested, 0.4% active; gsp-mutant cells, cAMP HTRF, 30 min; Potency, µM (highest dose often 76.9 µM), inactives show at the top dose activity change, negative = inhibition, actives largely listed as inhibitors; calls by dose curve; cell line not stated here;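 also: intracellular cAMP measured with PDE inhibitor Ro 20-1724 present during compound exposure; % is scaled to controls: 0 for no effect and ±100 for the full control effect; nearly all actives have a fitted effect of over 65% in size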
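Cells in G418 medium, seeded 16-24 h, 37C; buffer exchange to DPBS + 1 mM CaCl2, 0.5 mM MgCl2, 0.05% BSA; cpds in DMSO + […] (300 uM stock), 30 min 37C; HTRF cAMP detection.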
Rango release inh – inhibition of RanGTP-driven Rango-importin beta dissociation; O95149+P62826; Biochemical FRET Rango-importin beta, RanGTP-induced dissociation; Potency, µM (series often up to 46.1 µM), inactives show at the highest dose activity change, negative = inhibition; 340,000 tested, 0.071% active; AID 540253; also: % of control where 0% means no effect; nearly all actives have a fitted effect of over 45% in size
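Rango/importin beta premix (0.1/0.25 uM final), PBS + 1 mM DTT + 0.02% Tween-20 + 0.1% BSA; cpd 5 min RT; FRET pre-read; + RanGTP-RCC1 (0.6 uM Ran, 2 mM GTP, 0.2 uM RCC1); 45 min RT; FRET post-read, ex 430, em 486/530 nm.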
gsp ag – gsp mutant agonism | Potency, µM (highest dose often 76.9 µM), without a hit: top-dose activation (cAMP increase), most hits filed as activators | gsp mutant cells, cAMP HTRF, 30 min | AID 624287 | 340,000 tested, 0.13% active; active = well fitted activation curve with a large enough effect; inconclusive = small, poorly fitted or top-dose-only effect, or another doubt; inactive = no such curve, though single readings can be large or run the other way; cell line not stated here;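 also: phosphodiesterase inhibitor Ro 20-1724 added with compounds to block cAMP breakdown; nearly all actives have a fitted effect of over 60% in size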
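Cells in DMEM/10% FBS with G418 were pretreated with compounds in DMSO plus […] (300 uM stock) for 30 min at 37C. cAMP was measured by HTRF (cAMP-d2 plus anti-cAMP antibody-K) after 30 min at room temperature.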
* hit, by the source's call; ? = inconclusive; / = no result; [ ] = another dose, or the depositor's remark. Unless noted, calls follow the shape of the full dose curve. Potency is read from the fitted curve at half-maximal effect.

item | Structure | Rango complex inh | gsp antagonist
1 | O=C(NCc1ccncc1)c1ccc(Cl)c(S(=O)(=O)N2CCCCC2)c1 | -2% | 3%
2 | CCN(CC)C1CCN(C(=O)c2ccc(OC3CCN(C(=O)CCOC)CC3)cc2)C1 (stereo not drawn) | / | /
3 | CCOC(=O)COc1nc(-c2ccco2)cc(-c2ccco2)c1C#N | ? | -22%
4 | CCOC(=O)C(C)Sc1nc(-c2ccco2)cc(C(F)(F)F)c1C#N (stereo not drawn) | -3% | 35µM*
5 | COC(=O)[C@H](CC(C)C)N(Cc1ccccc1)S(=O)(=O)N(Cc1ccc(OC)cc1)[C@@H](CC(C)C)C(=O)OC | -2% | 50µM*
6 | CN(C)C1CCCCC=CC(=O)NC1 (stereo not drawn) | / | /
7 | N#Cc1cccc(C(=O)Nc2ccc(S(=O)(=O)Nc3nccs3)cc2)c1 | ? | 10%
8 | O=C(Nc1ccc(S(=O)(=O)Nc2nccs2)cc1)c1cnc(Cl)c(Cl)c1 | ? | -24%
9 | Cc1ccc(NC(=O)CN(C)C(=O)C2CSC3(C)CCC(=O)N23)cc1 (stereo not drawn) | / | /
10 | CCN1C(=O)/C(=C/C=C2/SCCN2C)SC1=S | 9% | 7%
11 | CN1/C(=C\C=C2/SC(=S)N(CC(=O)O)C2=O)C(C)(C)c2ccccc21 | 23µM* | -25%
12 | CN1CCS/C1=C\C=C1/SC(=S)N(CC(=O)O)C1=O | 58µM* | ?

item | Rango release inh | gsp ag
1 | -6% | -9%[15.4 µM]
2 | / | -26%
3 | ? | 4%[15.4 µM]
4 | ? | -20%
5 | -16% | /
6 | / | 9%
7 | 9.2µM* | 3%
8 | 10µM*[inhibitor] | 3%
9 | / | -35%
10 | -18% | 11%
11 | ? | -57%[15.4 µM]
12 | ? | -4%

Following part.
item | Structure | Rango complex inh | gsp antagonist
13 | CC(=O)N1C[C@H]2CON(C)[C@H]2C[C@H]1c1cccc(-c2ccc(C#N)cc2)c1 | / | /
14 | O=C(CSc1ncnc2ccccc12)Nc1cc(S(=O)(=O)N2CCCCC2)ccc1Cl | -4% | 25%
15 | O=C(Nc1cccc(Cl)c1)Nc1cc(S(=O)(=O)N2CCCCC2)ccc1Cl | 0% | 25µM*
16 | O=C(CSc1ncnc2ccccc12)Nc1cccc(S(=O)(=O)N2CCCC2)c1 | ? | 9%
17 | COc1ccccc1NS(=O)(=O)c1cc(NC(=O)c2ccc(Cl)nc2)ccc1Cl | 4% | 32µM*
18 | COC(=O)c1cc(NC(=O)Nc2cccc(Cl)c2)ccc1Cl | 3% | 25µM*
19 | CSCC[C@H]1COC[C@@H](Cc2ccccc2)N1c1ccccc1 | / | /
20 | CC(=O)N(CCc1ccccc1)c1ccc2c(c1)C1CC2CCN1C(=O)OCc1ccccc1 (stereo not drawn) | / | /
21 | O=C(Oc1ccc(-c2nnco2)cc1)c1cc(S(=O)(=O)N2CCOCC2)ccc1F | / | /
22 | CC(C)CC1C(=O)N(Cc2cn(CCC3OCCCO3)nn2)CCS(=O)(=O)N1Cc1ccc(-c2ccc(Cl)c(Cl)c2)cc1 (stereo not drawn) | / | /
23 | COc1ccccc1NS(=O)(=O)c1cccc(NC(=O)Nc2cccc(Cl)c2)c1 | -1% | 32µM*
24 | O=C(Nc1cccc(F)c1)Nc1cccc(Cl)c1 | 3% | -18%

item | Rango release inh | gsp ag
13 | / | -42%
14 | 17% | 3.2µM*
15 | ? | 13%
16 | 0% | ?
17 | 17% | 1%[15.4 µM]
18 | 7% | -4%
19 | / | -104%
20 | / | -22%
21 | / | 2%
22 | / | -59%
23 | 2% | -12%
24 | -4% | -19%

Remaining list, next part.
item | Structure | Rango complex inh | gsp antagonist
25 | O=C(Nc1cccc(Cl)c1)Nc1cccc(Cl)c1 | -6% | 35µM*
26 | COc1ccccc1NS(=O)(=O)c1cccc(NC(=O)NCCCl)c1 | -5% | -5%
27 | CNC(=O)C[C@@H]1C(=O)N(c2ccc(OC)cc2)CC1(C)C | / | /
28 | COc1ccc(N=c2oc3c(OC)cccc3cc2C(=O)NCc2ccco2)cc1OC | 1% | -5%
29 | COc1cccc2cc(C(=O)Nc3ccc(F)cc3)c(=Nc3ccc(C(=O)O)cc3)oc12 | 6% | 11µM*
30 | Cc1cc(Cl)ccc1OC(C)C(=O)Nc1ccc(S(=O)(=O)N2CCOCC2)cc1 (stereo not drawn) | 1% | -5%
31 | Cc1cc(Cl)ccc1OC(C)C(=O)Nc1ccc(C(=O)Nc2ccccc2C(=O)O)cc1 (stereo not drawn) | 0% | 32µM*
32 | CCCn1c(SCC(=O)Nc2ccc(NC(C)=O)cc2)nc2c1c(=O)n(C)c(=O)n2C | 1% | 4%
33 | CCC(=O)Nc1ccc(NC(=O)CSc2nc3c(c(=O)n(C)c(=O)n3C)n2CC)cc1 | -2% | 22%
34 | Cc1cccc(NC(=O)/C(C#N)=C\c2cc(C)n(-c3ccc(C(=O)O)cc3)c2C)c1 | ? | 25µM*
35 | Cc1cn([C@H]2C[C@H](O)[C@@H](CNCc3ccc(-c4cc(Cl)ccc4C(F)(F)F)o3)O2)c(=O)[nH]c1=O | / | /
36 | CC(=O)Nc1ccc(S(=O)(=O)Nc2nc3ccccc3nc2Cl)cc1 | 0% | 9%

item | Rango release inh | gsp ag
25 | 3% | 16%
26 | -1% | ?
27 | / | -51%
28 | 0% | -55%
29 | -1% | -24%
30 | 0% | 18%
31 | 0% | 5%
32 | -1% | 18µM*
33 | -7% | 47%[15.4 µM]
34 | ? | 5%
35 | / | 43%
36 | -6% | 7.9µM*

Carrying on:
item | Structure | Rango complex inh | gsp antagonist
37 | Cc1cc(F)ccc1S(=O)(=O)Nc1nc2ccccc2nc1Cl | ? | 9%
38 | CC(C)OC(=O)N(C)C[C@@H]1OCc2ccccc2-c2c(n(C)c3ccccc23)C(=O)N([C@@H](C)CO)C[C@H]1C | / | /
39 | O=C(CNS(=O)(=O)c1ccccc1)NCC(=O)OCc1ccc(C(=O)c2ccccc2)cc1 | 0% | -15%
40 | O=C(CNS(=O)(=O)c1ccccc1)NCC(=O)OCc1ccc(Cl)cc1 | -2% | 0%
41 | COc1ccc(OC)c(NC(=O)CSc2ncnc3c2cnn3-c2ccccc2Cl)c1 | 2% | 2µM*
42 | O=C(c1ccc(COc2ccccc2Br)o1)N1CCN(c2ccccn2)CC1 | 0% | -9%
43 | O=C(c1ccc(C#Cc2ccccc2)o1)N1CCN(c2ccccn2)CC1 | 1% | 35µM*
44 | Cc1cccc([C@@H]2[C@@H]3C(=O)N(Cc4ccccc4)C(=O)[C@@H]3[C@]3(C)C(=O)N(c4cccc(F)c4)C(=O)N23)c1 | -1% | 28µM*
45 | Cc1ccc(N2C(=O)N3[C@H](c4cccc(C)c4)[C@@H]4C(=O)N(Cc5ccccc5)C(=O)[C@@H]4[C@]3(C)C2=O)cc1 | 3% | -2%
46 | COc1ccc(Cl)cc1C(=O)Nc1ccc(NC(C)=O)cc1 | 0% | 35µM*
47 | CC(=O)Oc1c(I)cc(I)cc1C(=O)Nc1ccc(Cl)cc1 | 6% | 35µM*
48 | CC(C)c1c(O)ccc2c1CC[C@H]1C(C)(C)CCC[C@]21C | 0% | 6%

item | Rango release inh | gsp ag
37 | 0% | 22µM*
38 | / | -41%
39 | 9% | -36%
40 | 8% | 7.9µM*
41 | 5% | -19%
42 | 0% | -9%
43 | -5% | -15%
44 | -11% | /
45 | 7% | -22%
46 | 2% | -14%
47 | 1% | 7%[15.4 µM]
48 | 1% | /

Other records:
item | Structure | Rango complex inh | gsp antagonist
49 | N#Cc1cnn2c(=O)[nH]cnc12 | / | /
50 | Cc1ccc(-c2ccc(CN3C(CC(C)C)C(=O)N(Cc4cn(CC5CCCCC5)nn4)CCS3(=O)=O)cc2)cc1 (stereo not drawn) | / | /
51 | CC(=O)N(/C=C1\SC(=S)N(c2ccccc2)C1=O)c1ccccc1 | ? | -4%
52 | CCCc1nc(SCC(=O)Nc2nc3c(s2)CCCC3)c2ccccc2n1 | 0% | 1%
53 | CCc1nc(SCC(=O)Nc2nc3c(s2)CCCC3)c2ccccc2n1 | -1% | 20%

item | Rango release inh | gsp ag
49 | / | 7%
50 | / | -89%
51 | 16µM* | 3%
52 | -10% | ?
53 | 0% | 18µM*

Part of the list above, as a markdown table:
| nr | Structure | Rango complex inh | gsp antagonist | Rango release inh | gsp ag |
| --- | --- | --- | --- | --- | --- |
| 52 | CCCc1nc(SCC(=O)Nc2nc3c(s2)CCCC3)c2ccccc2n1 | 0% | 1% | -10% | ? |
| 53 | CCc1nc(SCC(=O)Nc2nc3c(s2)CCCC3)c2ccccc2n1 | -1% | 20% | 0% | 18µM* |
| 51 | CC(=O)N(/C=C1\SC(=S)N(c2ccccc2)C1=O)c1ccccc1 | ? | -4% | 16µM* | 3% |
| 49 | N#Cc1cnn2c(=O)[nH]cnc12 | / | / | / | 7% |
| 50 | Cc1ccc(-c2ccc(CN3C(CC(C)C)C(=O)N(Cc4cn(CC5CCCCC5)nn4)CCS3(=O)=O)cc2)cc1 (stereo not drawn) | / | / | / | -89% |
